# Reference: article PMC5298231, “The Malaria Parasite's Lactate Transporter PfFNT Is the Target of Antiplasmodial Compounds Identified in Whole Cell Phenotypic Screens” (PLoS Pathogens, 2017)
# Test system: 3D7 P. falciparum trophozoites
# Assay: Cytosolic pH (pHcyt) measurement in BCECF-loaded saponin-isolated trophozoites
# Settings: 1 μM
row,SMILES,Effect on pHcyt at 1 μM (Comments)
1,CC(C)OCc1cc(CN2CCN(c3cccc(Cl)c3)CC2)c(O)c2ncccc12 [MMV000788],minor (A minor effect on pHcyt corresponds to a change of < 0.15 pH unit)
2,Cc1ccc(Nc2nc(-c3ccccn3)cs2)cc1 [MMV007907],minor (A minor effect on pHcyt corresponds to a change of < 0.15 pH unit)
3,O=C(Nc1nc(-c2ccccn2)cs1)c1ccccc1Br [MMV665909],minor (A minor effect on pHcyt corresponds to a change of < 0.15 pH unit)
